In this series the test system is rat chronic carcinogenicity bioassay, TD50. Briefly: DSSTox (CPDBAS) Carcinogenic Potency Database Summary Rat Bioassay Results. The note with it: for Potency: active compounds read low; for outcome: TD50_Rat_Note: no positive results. The source says: The Carcinogenic Potency Database (CPDB) is a unique and widely used international resource of the results of over 6500 chronic, long-term animal cancer tests on over 1500 chemical substances. The CPDB provides easy access to the bioassay literature, with qualitative and quantitative analyses of both positive and negative experiments that have been published over the past 50 years in the general literature and by the National Cancer Institute/National Toxicology Program. The CPDB standardizes the diverse literature of cancer bioassays that vary widely in protocol, histopathological examination and nomenclature, and in the published author's choices of what information to provide in their papers. Results are reported in the CPDB for tests in rats, mice, hamsters, dogs, and nonhuman primates, and are based on the most positive result among all experiments for each sex-species. The DSSTox CPDBAS (all species) file incorporates data from the CPDB Summary Tables for the full list of over 1500 chemical substances tested in at least one species. Summary bioassay results for Rat (TD50, tumor sites, male, female, both sexes) are provided in the CPDB Summary Tables and the DSSTox CPDBAS file for over 1200 chemical substances.
TD50 is a standardized quantitative measure of carcinogenic potency (analogous to an LD50) and is reported in the CPDB Summary Table for each species. Activity Score for actives is computed by mapping of LOG10 (1/TD50_Rat_mmol) activity values spanning range [MIN, MAX] onto Integer 1-100 Activity Score range, where 100 is highest potency and 1 is lowest: Activity Score = 100 * INTEGER[(log10(1/Activity) - MIN)/(MAX - MIN)]. If activity is reported but no TD50_Rat_mmol value is computed, such as for a mixture, the Activity Score is assigned the activity value "50". […] Target sites are reported for each sex-species group with a positive result in the CPDB on the basis of a positive author's opinion for the particular site, using all results from both the general literature and NCI/NTP bioassays. If a chemical has two or more target sites listed, the results may be from different experiments, and a single site may be a target organ in more than one experiment, as well. Blank entry in TargetSites field indicates no results reported.

Setting [1] is: TargetSites_Rat_Female: no positive results.

The source made the active and inactive calls.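 Rule for the calls: active = at least one rat sex group has a carcinogenic potency value and tumor site recorded; inconclusive = only rat studies were judged inadequate by the national testing program; inactive = no potency or tumor site, with negative rat experiments.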

As for `CN[N+](=O)[O-]`, under “TD50_Rat_Note: TD50 is harmonic mean of more than one positive test, TargetSites_Rat_Female: nervous system”, the Potency is 17.4 mg/kg/day. In the case of `ClCl`, the outcome under setting [1] was “inactive; no positive results”. Take `O=[N+]([O-])c1cc([N+](=O)[O-])cc([N+](=O)[O-])c1`: the outcome under setting [1] is “inactive; no positive results”.

`CN(C)[N+](=O)[O-]`: the Potency (TargetSites_Rat_Female: liver, nasal cavity) was 0.547 mg/kg/day. Take `COP(C)(=O)OC`: the Potency under setting [1] is 700 mg/kg/day. `Cc1ccc([N+](=O)[O-])cc1[N+](=O)[O-]`: the outcome was “inactive; no positive results” and the Potency was 8.02 mg/kg/day. The Potency (TD50_Rat_Note: TD50 is harmonic mean of more than one positive test, TargetSites_Rat_Female: liver, mammary gland) was 6.21 mg/kg/day. Besides, the outcome under setting [1] is “inactive; no positive results”. Regarding `Cc1c([N+](=O)[O-])cccc1[N+](=O)[O-]`, the Potency (TD50_Rat_Note: TD50 is harmonic mean of more than one positive test) was 0.292 mg/kg/day. As for `O=[N+]([O-])OCC(CO[N+](=O)[O-])(CO[N+](=O)[O-])CO[N+](=O)[O-]`, the outcome under setting [1] was “inactive; no positive results”.

The values are drawn from PubChem BioAssay AID1208 (EPA DSSTox, 2008).
